PubChem BioAssay AID504904 (The Scripps Research Institute Molecular Screening Center, 2011)
This is a selection; strong and weak results do not stand in their true shares. Some of these compounds have results that are not shown, active ones among them. The source made the active and inactive calls. Rule as the data show it: active = activation above about 18%; inactive = the rest.

Protein sequences, listed by entry. Tags and fused reporters are not part of them.
UniProt P35372, whole entry, looked up: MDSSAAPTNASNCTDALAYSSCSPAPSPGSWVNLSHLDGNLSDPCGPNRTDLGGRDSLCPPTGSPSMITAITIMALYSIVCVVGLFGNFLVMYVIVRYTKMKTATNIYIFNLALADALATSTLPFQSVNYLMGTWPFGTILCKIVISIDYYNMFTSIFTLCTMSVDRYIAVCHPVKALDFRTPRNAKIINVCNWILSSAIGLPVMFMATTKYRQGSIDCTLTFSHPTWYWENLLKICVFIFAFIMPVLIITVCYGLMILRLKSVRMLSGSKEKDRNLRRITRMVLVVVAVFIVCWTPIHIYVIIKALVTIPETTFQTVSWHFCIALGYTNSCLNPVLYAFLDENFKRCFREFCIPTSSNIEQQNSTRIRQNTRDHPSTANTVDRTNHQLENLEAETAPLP
UniProt P41143, whole entry, looked up: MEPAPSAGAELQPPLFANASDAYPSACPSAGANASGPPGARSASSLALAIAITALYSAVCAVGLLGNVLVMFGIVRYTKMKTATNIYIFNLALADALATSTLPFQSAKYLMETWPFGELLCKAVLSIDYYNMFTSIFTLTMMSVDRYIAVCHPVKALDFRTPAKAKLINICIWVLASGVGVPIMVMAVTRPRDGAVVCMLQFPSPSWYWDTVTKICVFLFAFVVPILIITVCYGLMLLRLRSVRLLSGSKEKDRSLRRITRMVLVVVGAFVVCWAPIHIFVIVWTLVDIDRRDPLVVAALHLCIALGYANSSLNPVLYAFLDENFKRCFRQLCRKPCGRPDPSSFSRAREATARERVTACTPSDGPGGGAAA

Target: Mu-type opioid receptor (Homo sapiens) + Delta-type opioid receptor (Homo sapiens) (UniProt P35372+P41143)
Test: OPRM1-OPRD1 heterodimer formation agonism – cell-based, luminescence, confirmation (AID 504904);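 also: 0% = vehicle-treated cells and 100% = reference agonist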
Settings: cells, MOR-DOR heterodimerization, luminescence complementation; at 9.3 µM; stronger effect = higher value

Compound: CN(C)c1ccc(C(=O)NCC2(N(C)C)CCCCC2)cc1
- activation: inactive: -3.1%
